Screens deposited in PubChem by Broad Institute.
miR122 inh = miR-122 Renilla sensor signal increase in Huh7, primary screen, miR-122 inhibitor project, cell-based, single point, plate reader; Huh7 miR-122 Renilla luciferase sensor, 48 h; neutral wells = 0, positive control = 100; activation (reporter increase), % at 12.5 µM; hit rate 0.3% among 340,000;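 active = mean replicate activation score at least 90 and every replicate individually at or above 90; inconclusive = only one of the two criteria met; inactive = neither criterion met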;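 note: higher luciferase means less miR-122 activity so hits act as miR-122 inhibitors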
Wnt act = Wnt/beta-catenin pathway activators, primary screen, cell-based, plate reader, single point. Wnt/beta-catenin reporter cell assay, activator. activation, % at 9.35 µM. hit rate 1.2% among 300,000. AID 743398, 2014; in the data active = activation above about 30%, passing the limit was not always enough; inconclusive = no clear call, values can overlap the other calls;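 note: 0% = neutral control wells and 100% = positive control wells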
MITF TRPM1 HTS = activators of MITF-driven TRPM1 promoter reporter, primary screen, cell-based, SK-MEL-5, luciferase, single point; SK-MEL-5 TRPM1-promoter luciferase, 24 h; % of positive control, neutral wells = 0; activation, % at 12.5 µM; hit rate 0.75% among 300,000; AID 588334, 2011;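 active = mean activation of at least 80% with every replicate also reaching 80%; inconclusive = mean reaches 80% but some replicate falls short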;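 note: 0% = neutral control wells and 100% = parthenolide positive control wells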
PglD inh = C. jejuni PglD acetyltransferase inhibitors, primary screen, biochemical, DTNB colorimetric, single point; UDP-N-acetylbacillosamine N-acetyltransferase PglD (Campylobacter jejuni); purified PglD enzyme, DTNB colorimetric CoA detection; inhibition, % at 12.5 µM; hit rate 0.098% among 360,000; in the data active = inhibition above about 16%, passing the limit was not always enough; inconclusive = no clear call, values can overlap the other calls
UUG fidelity = modulators of yeast start codon fidelity, primary screen, whole organism, S. cerevisiae, single point, plate reader; S. cerevisiae UUG-firefly luciferase reporter, luminescence/redox ratio; activity score, % at 18.7 µM; actives 0.13% (n = 350,000); AID 602363, 2012;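 active = replicate mean at a twofold rise or more, about +100% in these data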;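 also: firefly luciferase made from a UUG start codon reports start codon fidelity; reporter light over untreated wells divided by growth signal over untreated wells; some hits fall short of that in this replicate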
esBAF inh = Bmi1 luciferase reporter increase in mESCs, primary screen, esBAF inhibitor project, mouse ES cells, Bmi1 luciferase knock-in, single point | reporter increase, % at 12.5 µM | 24 h; 100% = twice the neutral-well signal | AID 602393, 2012 | hit rate 2% among 350,000; in the data active = activation above about 40%; inconclusive = no clear call, values can overlap the other calls;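 note: 0% = median of the plate's neutral control wells and 100% = double that signal; a rise in the Bmi1 reporter signal indicates esBAF inhibition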
Starred values were filed as active, the others as inactive; ? = inconclusive; · = no result given; [ ] = another dose, or the depositor's remark. Only some compounds are listed: those with a hit (about 2.8% of all), similar ones and a draw of the others.

#	Compound	PglD inh	Wnt act	MITF TRPM1 HTS
1	CCn1cnc2sc(-c3ccccc3)cc2c1=O	·	19.4	45.0
2	COCC(=O)Nc1ccc2c(c1)OC[C@H](C)N(CC1CC1)C[C@@H](C)[C@H](OC)CN(C)C2=O	2.3	·	·
3	CN1C(=O)c2cc(NC(=O)Nc3ccc(Cl)cc3)ccc2OC[C@H]2O[C@H](CC(=O)NCCN3CCCCC3)CC[C@H]21	-0.7	·	·
4	C[C@H]1CN([C@@H](C)CO)C(=O)c2cc(NS(=O)(=O)c3cccs3)ccc2O[C@@H]1CN(C)CC1CCCCC1	-3.4	·	·
5	CC(=O)Cn1cnc2sc(-c3ccccc3)cc2c1=O	-2.5	36.6*	88.0*
6	O=C(Cn1cnc2sc(-c3ccccc3)cc2c1=O)N1CCOCC1	0.3	-1.8	11.5
7	Cc1ccc(OC(=O)COc2ccccc2)c(-n2nc3ccccc3n2)c1	2.0	55.0*	37.2
8	Cc1ccc(OC(=O)c2cccc([N+](=O)[O-])c2)c(-n2nc3ccccc3n2)c1	·	42.7*	76.0
9	COc1ccc(S(=O)(=O)N2C[C@H](O)COC[C@@H]3O[C@@H](CC(=O)N[C@@H]4CCN(Cc5ccccc5)C4)CC[C@H]32)cc1	-1.8	·	·
10	CO[C@@H](CN(C)S(=O)(=O)c1cn(C)cn1)[C@@H](C)CN(C(=O)Nc1ccc(F)cc1)[C@H](C)CO	-1.0	·	·

#	UUG fidelity	esBAF inh	miR122 inh
1	·	48.7*	-8.2
2	·	-3.1	·
3	·	6.6	-38.3[16.7 µM]
4	0.5	-0.1	-3.4[16.7 µM]
5	-9.0	·	-11.1
6	-16.1	19.4	-1.4
7	-20.5	·	5.1
8	·	84.5*	-3.6
9	2.4	-2.2	-5.6[16.7 µM]
10	·	-2.8	·

3 records drawn at random from those above:
#	Compound	PglD inh	Wnt act	MITF TRPM1 HTS
7	Cc1ccc(OC(=O)COc2ccccc2)c(-n2nc3ccccc3n2)c1	2.0	55.0*	37.2
1	CCn1cnc2sc(-c3ccccc3)cc2c1=O	·	19.4	45.0
8	Cc1ccc(OC(=O)c2cccc([N+](=O)[O-])c2)c(-n2nc3ccccc3n2)c1	·	42.7*	76.0

#	UUG fidelity	esBAF inh	miR122 inh
7	-20.5	·	5.1
1	·	48.7*	-8.2
8	·	84.5*	-3.6

Further results.
#	Compound	PglD inh	Wnt act	MITF TRPM1 HTS
11	O=[N+]([O-])c1ccc(C=NNc2ccccc2)cc1	-2.1	14.5	69.7
12	O=[N+]([O-])c1ccc(N/N=C/c2ccccc2O)cc1	2.0	6.4	35.1
13	Cc1csc(N/N=C/c2ccc([N+](=O)[O-])cc2)n1	-9.3	11.8	·
14	O=[N+]([O-])c1cccc(C=NNc2ccccc2)c1	9.9	-2.6	60.8
15	O=[N+]([O-])c1cccc(N/N=C/c2cc([N+](=O)[O-])ccc2O)c1	·	4.2	22.6
16	Cc1nnc(N/N=C/c2ccc([N+](=O)[O-])cc2)n1N	2.9	1.0	-6.6
17	O=[N+]([O-])c1ccc(N/N=C/c2ccccc2)c(F)c1	6.4	33.9*	87.3*
18	O=[N+]([O-])c1cccc(/C=N/N=C\c2ccccc2)c1	6.4	1.9	·
19	COc1cccc(S(=O)(=O)N(C)C[C@@H]2Oc3ncc(/C=C/c4ccccc4)cc3C(=O)N([C@H](C)CO)C[C@@H]2C)c1	-0.2	·	·
20	CCCOc1ccc(/C=N/Nc2cccc([N+](=O)[O-])c2)c(O)c1	2.9	·	84.0*

#	UUG fidelity	esBAF inh	miR122 inh
11	-10.3	44.2*	2.2
12	-7.5	68.7*	·
13	-20.8	52.6*	2.4
14	-16.6	?	16.9
15	·	·	·
16	-29.4	-4.9	-6.3
17	-14.9	·	-2.0
18	8.7	29.2	-3.9
19	10.0	-2.9	-7.4[16.7 µM]
20	5.8	·	-20.9

(further entries)
#	Compound	PglD inh	Wnt act	MITF TRPM1 HTS
21	C[C@@H]1CN([C@@H](C)CO)S(=O)(=O)c2ccc(C#C[C@@H](C)O)cc2O[C@H]1CN(C)C(=O)c1ccncc1	-1.4	·	·
22	CCOC(=O)Nc1ccc(Oc2ccccc2)cc1	-10.6	55.0*	89.9*
23	CCOC(=O)Nc1ccc(NS(=O)(=O)c2ccc(C)cc2)cc1	0.0	2.4	·
24	CC(=O)Nc1ccc(NS(=O)(=O)c2ccc3ccccc3c2)cc1	1.4	-0.9	·
25	CCCCOc1ccc(S(=O)(=O)Nc2ccc(NC(C)=O)cc2)cc1	4.1	·	-12.4
26	CCOC(=O)Nc1ccc(S(=O)(=O)Nc2nc(C)cc(C)n2)cc1	1.1	0.5	1.8
27	CCCCN(CCCC)S(=O)(=O)c1ccc(NS(=O)(=O)c2ccc(NC(C)=O)cc2)cc1	·	-2.9	11.2
28	Cc1ccc(S(=O)(=O)Nc2ccc3c(c2)C(=O)N([C@H](C)CO)C[C@H](C)[C@@H](CN(C)Cc2ccc(C(=O)O)cc2)OCCCC[C@H](C)O3)cc1	10.8	·	·
29	Cc1nnc(SCc2ccccc2)nc1-c1ccccc1	-0.9	?	87.7*
30	CCOC(=O)CSc1nnc(-c2ccccc2)c(-c2ccccc2)n1	-2.4	-2.7	3.8

#	UUG fidelity	esBAF inh	miR122 inh
21	-2.1	-5.5	0.5[16.7 µM]
22	-5.2	53.9*	-5.7
23	-8.2	2.2	206.2*
24	-8.8	2.6	105.5*
25	-5.2	5.2	204.7*
26	-17.1	-8.7	0.2
27	·	0.1	-5.0
28	22.0	-2.8	7.2[16.7 µM]
29	-2.3	83.2*	-4.0
30	-8.0	-11.9	-8.9

Next section.
#	Compound	PglD inh	Wnt act	MITF TRPM1 HTS
31	Cc1nc(NC(=O)Nc2ccc(Cl)cc2)sc1C	-3.4	14.8	78.1
32	CC(C)=CC(=O)Nc1ccc(Cl)cc1	·	44.8*	89.4*
33	COc1ccc(NC(=O)C=C(C)C)cc1Cl	-1.1	·	69.3
34	CC(C)(C)c1nnc(NC(=O)Nc2ccc(Cl)cc2)s1	·	2.2	38.2
35	CC(=O)c1ccc(NC(=O)Nc2ccc(Cl)cc2)cc1	·	17.4	125.4*
36	CCc1ccc(NS(=O)(=O)c2ccc(OC)c3ncccc23)cc1	0.8	-1.6	-5.9
37	CC(C)CSc1nnc2c(n1)[nH]c1ccccc12	·	49.8*	-12.1
38	O=C(O)CSc1nnc2c(n1)[nH]c1ccccc12	·	-0.6	0.6
39	CCCCSc1nnc2c(n1)[nH]c1ccccc12	-3.7	62.3*	64.8
40	CC(C)NC(=O)N1[C@@H](CO)[C@@H]2c3ccccc3N(C(=O)Nc3ccc(F)cc3)C[C@@H]21	1.3	·	·

#	UUG fidelity	esBAF inh	miR122 inh
31	-16.1	58.3*	-5.6
32	·	·	·
33	-11.9	8.3	-5.7
34	·	·	·
35	·	65.6*	-1.2
36	-10.9	-1.4	173.2*
37	·	·	·
38	·	·	·
39	-4.2	35.9	0.1
40	-2.0	3.9	-3.8[16.7 µM]

Given in transposed form: 2 of the compounds above
35) CC(=O)c1ccc(NC(=O)Nc2ccc(Cl)cc2)cc1
36) CCc1ccc(NS(=O)(=O)c2ccc(OC)c3ncccc23)cc1
assay / compound	35	36
PglD inh	·	0.8
Wnt act	17.4	-1.6
MITF TRPM1 HTS	125.4*	-5.9
UUG fidelity	·	-10.9
esBAF inh	65.6*	-1.4
miR122 inh	-1.2	173.2*

Following part.
#	Compound	PglD inh	Wnt act	MITF TRPM1 HTS
41	Cc1ccc(S(=O)(=O)NCC[C@@H]2CC[C@@H](NC(=O)Nc3ccccc3F)[C@@H](CO)O2)cc1	-0.8	·	·
42	O=C(Nc1ccc(F)cc1F)c1ccc2ncsc2c1	4.6	5.0	22.1
43	CCCSc1ccc(C(=O)Nc2ccc(F)cc2F)cn1	-1.1	8.2	?
44	O=C(Nc1ccc(Cl)cc1Cl)c1ccc2ncsc2c1	-2.5	?	111.9*
45	O=C(Nc1ccncc1)c1ccc2ncsc2c1	-2.8	-1.8	28.7
46	O=C(Nc1cccc(F)c1)c1ccc2ncsc2c1	3.9	·	-4.5
47	Cc1noc(C)c1S(=O)(=O)N(C)C[C@@H]1OCCCC[C@H](C)Oc2ccc(NS(=O)(=O)c3cccs3)cc2C(=O)N([C@H](C)CO)C[C@@H]1C	5.9	·	·
48	O=C(Nc1ccccc1F)c1cccc(C(=O)Nc2ccccc2F)c1	·	2.3	11.3
49	O=C(Nc1ccccc1F)c1ccc2ncsc2c1	-0.9	17.1	64.0
50	Cc1cccc(OCC(=O)Nc2nccs2)c1C	17.7	36.6*	37.1

#	UUG fidelity	esBAF inh	miR122 inh
41	-7.3	-1.7	·
42	-25.4	66.9*	-1.7
43	0.8	46.0*	-2.3
44	-9.5	58.8*	-13.0
45	-19.1	70.8*	·
46	-16.1	15.5	3.9
47	10.3	8.7	-2.7[16.7 µM]
48	·	·	·
49	-19.6	56.5*	-10.2
50	-43.9	·	·
